Biological target: MOR (Homo sapiens (Human), UniProt P35372)
Assay: biochemical
Type: binding

The chains behind the UniProt entries cited, without tags or fusion partners.
UniProt P35372, whole entry: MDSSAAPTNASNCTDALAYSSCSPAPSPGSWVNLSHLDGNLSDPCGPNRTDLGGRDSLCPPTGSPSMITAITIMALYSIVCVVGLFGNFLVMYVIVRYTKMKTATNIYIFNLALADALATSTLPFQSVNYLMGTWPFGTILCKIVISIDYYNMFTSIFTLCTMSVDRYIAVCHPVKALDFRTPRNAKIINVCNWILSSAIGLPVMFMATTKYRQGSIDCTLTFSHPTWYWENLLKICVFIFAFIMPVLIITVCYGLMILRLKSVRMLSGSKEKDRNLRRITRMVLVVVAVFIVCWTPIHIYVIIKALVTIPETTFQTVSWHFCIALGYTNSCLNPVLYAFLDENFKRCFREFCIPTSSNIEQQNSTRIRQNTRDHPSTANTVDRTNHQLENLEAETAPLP

Question: Which Ki does the source give for CN(C)[C@H](CNC(=O)NCCc1cn(CCOCCOCCOCCOCCOCCN=[N+]=[N-])nn1)Cc1ccc(O)cc1 [DD 168] here?
Answer: The Ki was 13 µM.

Source: US11484525B2 (priority 2015, dated 2022)
